Molecular target: human autotaxin (ATX) (Homo sapiens (Human), UniProt Q13822)
Assay: Human Autotaxin Assay
Type: biochemical
Conditions: concentrated conditioned media from Hep3B cells; LPC substrate, choline release
Description: ATX activity is assayed in concentrated conditioned media from Hep3B human hepatocellular carcinoma cells by measuring the amount of choline released from the substrate, lysophosphatidylcholine (LPC) as it is cleaved to LPA. Conditioned media is collected from confluent Hep3B cells and concentrated 20-fold using Centriprep-30 filter devices (Millipore). To assay for autotaxin inhibition, 10-20 μL of the concentrated conditioned media is incubated with 2.5 μL of a test compound in DMSO and 72.5-82.5 μL lyso-PLD buffer (100 mM Tris pH 9, 500 mM NaCl, 5 mM MgCl2, 5 mM CaCl2, 0.05% Triton X-100 in the presence or absence of 0.2% fatty-acid-free human serum albumin) for 15 min at 37° C. After the 15 min incubation, 5 uL of 2 mM LPC (14:0; Avanti Polar Lipids Cat#855575C) diluted in lyso-PLD buffer is added for a final concentration of 100 uM and the incubation continues for 1.5-3 hours at 37° C. 100 μL of a color mix containing 4.5 mM 4-aminoantipyrine, 2.7 mM N-ethyl-N-(2-hydroxy-3-sulfopropyl)-m-toluidine, 21 units/ml horseradish peroxidase and 3 units/mL choline oxidase in 50 mM Tris, pH 8, 4.5 mM MgCl2 is added and the incubation continued for 15 minutes at room temperature before reading the absorbance at 555 nm.

`Cc1c(Sc2cccc(C(=O)O)c2F)c2ccc(Cl)c(F)c2n1CC(=O)N1CCC(O)(C(F)(F)F)C1` (racemic) [Compound 2-57, Sodium 3-((6-chloro-7-fluoro-1-(2-(3-hydroxy-3-(trifluoromethyl)pyrrolidin-1-yl)-2-oxoethyl)-2-methyl-1H-indol-3-yl)thio)-2-fluorobenzoate] showed an IC50 of no more than 500 nM.

Reference: US9850203B2, “Autotaxin inhibitor compounds” (PharmAkea, Inc., priority 2013, dated 2017)
